The numbers were not newly measured in publication PMC7848973, “In Vivo Efficacy and Metabolism of the Antimalarial Cycleanine and Improved In Vitro Antiplasmodial Activity of Semisynthetic Analogues” (Antimicrobial Agents and Chemotherapy, 2021), which cites them from elsewhere.

The conditions of this series: in vitro, rat hepatic system; cited from earlier work.

N-desmethyl isotetrandrine: the “Metabolite produced from isotetrandrine” value is 16%.
